Laboratory results published in publication PMC9583304 (ACS Omega, 2022).

By UniProt entry, the sequences of proteins in these tests, tags left out.
UniProt Q99685, whole entry: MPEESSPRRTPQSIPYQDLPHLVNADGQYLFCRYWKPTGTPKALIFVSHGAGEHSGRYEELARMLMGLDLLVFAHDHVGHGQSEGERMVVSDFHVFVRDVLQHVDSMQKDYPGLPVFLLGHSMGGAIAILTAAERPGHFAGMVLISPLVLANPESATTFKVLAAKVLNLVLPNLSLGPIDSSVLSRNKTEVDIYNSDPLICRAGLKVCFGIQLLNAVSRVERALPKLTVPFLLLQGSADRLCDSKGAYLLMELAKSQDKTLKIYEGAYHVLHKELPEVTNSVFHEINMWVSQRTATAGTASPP

Target: human recombinant MAGL (Homo sapiens, UniProt Q99685)
Test: Human recombinant MAGL inhibition assay
Assay type: biochemical
Conditions: read-out: IC50 vs MAGL; mean based on triplicate measurement

O=C(Oc1ccc([N+](=O)[O-])cc1)N1CCN(Cc2cccc(Oc3ccccc3)c2)CC1 [JLZ195]
IC50: 10.7 µM
